From patent publication US9566281B2 (Westfaelische Wilhelms-Universitaet, priority 2012, dated 2017)

The compounds below were run on influenza A virus and/or influenza B virus.

Row | Structure (SMILES) | antiviral activity in combination with a neuraminidase inhibitor, such as oseltamivir
1 | COc1cc(F)c(F)c(Nc2ccc(I)cc2F)c1NS(=O)(=O)C1(C[C@H](O)CO)CC1 [RDEA-119] | demonstrate antiviral activity
2 | Cn1cnc2c(F)c(Nc3ccc(Br)cc3Cl)c(C(=O)NOCCO)cc21 [AZD-6244] | demonstrate antiviral activity
3 | Cc1cc(C(=O)NOCCO)c(Nc2ccc(I)cc2F)n(C)c1=O [AZD-8330] | demonstrate antiviral activity
4 | CCCS(=O)(=O)Nc1ccc(F)c(C(=O)c2c[nH]c3ncc(-c4ccc(Cl)cc4)cc23)c1F [PLX-4032] | demonstrate antiviral activity
5 | CC(=O)Nc1cccc(-n2c(=O)n(C3CC3)c(=O)c3c(Nc4ccc(I)cc4F)n(C)c(=O)c(C)c32)c1 [GSK-1120212] | demonstrate antiviral activity
6 | O=C(NOCC1CC1)c1ccc(F)c(F)c1Nc1ccc(I)cc1Cl [CI-1040] | demonstrate antiviral activity
